Target: expressed bovine cGB-PDE cDNA protein product (Bos taurus, UniProt Q28156)
Test: cGMP phosphodiesterase activity of extracts of COS cells transfected with bovine cGB-PDE, in presence of PDE inhibitors
Type: biochemical

OCCN(CCO)c1nc(N2CCCCC2)c2nc(N(CCO)CCO)nc(N3CCCCC3)c2n1 [dipyridamole]
IC50: 3.5 µM

— patent publication US20060222647A1, “Methods and compositions for modulating the activity of PDE5” (priority 1993, published 2006)
